Measured values from ChEMBL document CHEMBL4261646, “Bisphosphonate Inhibitors of Mammalian Glycolytic Aldolase” (J Med Chem, 2018).

Species on record: Homo sapiens

In the case of `O=P([O-])([O-])Oc1ccc2cc(C(P(=O)([O-])[O-])P(=O)([O-])[O-])ccc2c1.[Li+].[Li+].[Li+].[Li+].[Li+].[Li+]`, the Km was 2.7 µM.
